Assay: Inhibition of human CYP1A1 transfected in HEK293 cells assessed as protection against CYP1A1 mediated B[a]P toxicity by measuring B[a]P EC50 at 20 uM by MTT assay (Rvb =1.2+/- 0.3 uM)

Which EC50 does the source give for O=c1cc(-c2ccccc2)oc2c1ccc1ccccc12 here?
The EC50 was 3.2 µM.

Reference: BindingDB's records for doi:10.1016/j.bmcl.2017.11.013 (Csir-Indian Institute of Integrative Medicine, 2017)
